From US8137991B2, “Methods of reducing angiogenesis of age-related macular degeneration (AMD) or choroidal neovascularization by an anti-carboxyetheylpyrrole (CFP) antibody” (The Cleveland Clinic Foundation, priority 2006, dated 2012)

Key:
[1] = system: rat cornea (limbal blood vessels); assay: Rat corneal micropocket assay, angiogenic response to implanted pellets; type: in vivo, Sprague-Dawley rats; conditions: pellet 1 mm from limbus, CEP-HSA 1 μg; for growth of limbal blood vessels towards the pellet: CEP-dipeptide 37 ng, HSA 1 μg, dipeptide 41 ng
Method: Hydron/sucralfate pellets containing unmodified or CEP modified HSA or dipeptide with or without neutralizing antibodies (monoclonal mouse anti-human VEGF, 1.5 μg, R&D systems (MAB293) or monoclonal anti-CEP antibody (Gu, X., et al. (2003) J. Biol. Chem.), 4 μg) were inserted into corneal micropockets (1 mm from the limbus) of Sprague-Dawley rats. Control mouse IgM, 4 μg (eBioscience, cat. #14-4752) and mouse IgG, 1.5 μg (Southern Biotechnology Inc., cat. #0104-01) antibodies were used in control pellets for comparison with anti-CEP and anti-VEGF antibodies respectively. Corneas were examined daily with the aid of a surgical microscope to monitor angiogenic responses to CEP modified peptide or proteins. To photograph the angiogenic response, animals were perfused with India ink to label the vessels, and following enucleation and fixation, the corneas were excised, flattened and photographed. A positive neovascularization response was recorded only if sustained directional in-growth of capillary sprouts and hairpin loops toward the pellet was observed. A negative response was recorded when either no growth is observed or only an occasional sprout or hairpin loop showing no evidence of sustained growth was detected. All responses were compared to a negative control (pellet and pellet containing buffer) and positive control of VEGF. For neutralization studies, responses were compared to a negative control of non-specific mouse immunoglobulin (IgM) described above. Angiogenic response was analyzed for peak vascular extension and total skeletal (vascular) length using Image-Pro Plus 5.0 (Media Cybernetics, Silver Spring, Md.). Prior to performing vessel measurements images were processed using best-fit equalization filters, spectral filters, and large pixel-width background removal filters to enhance vasculature and eliminate image artifacts. […] The resulting image, a single segmented object representing the overall dimensions of the vascular bed, was analyzed for maximum box-width, i.e. extent of vessel penetration. […]

[2] = system: chick chorioallantoic membrane (CAM); assay: Chick chorioallantoic membrane (CAM) angiogenesis assay; type: in vivo, chick (white Leghorn embryos); conditions: for average skeletal density of CAM vessels: methylcellulose disc with 0.5 μg protein, 48 hours
Method: The CAM assay was performed as described previously (Nguyen, M., et al. (1994) Microvasc Res 47, 31-40) with slight modifications. Fertilized 3-day old white Leghorn eggs (CWRU, Squire valley farms) were cracked, and embryos with the yolk intact were placed in 100 mm×20 mm glass bottom Petri dishes. Following incubation for 3 days at 37° C. in 3% CO2, a methylcellulose disc (Fisher Scientific, Fair Lawn, N.J.) containing CEP-HSA or CEP-dipeptide, was placed on the CAM of individual embryos. CAMs implanted with discs loaded with unmodified dipeptide, HSA, control buffer or with vascular endothelial growth factor (VEGF) were used as negative and positive controls respectively. After 48 hours of incubation, India ink was injected into the vascular system for better visualization of the vessels by a stereomicroscope. Images were captured with a Panasonic CCD camera. Samples were always compared on the same CAM to avoid egg-to-egg variability. For quantitative analysis of vessel density and leakage, CAM images were batch processed using customized macros generated in Image-Pro Plus 5.0 (Media Cybernetics, Silver Spring, Md.). Briefly, a region of interest (ROI) was traced around grafted tissue in each image, each image was then cropped to its ROI, converted to grayscale, and processed using a large spectral filter to enhance the appearance of vasculature whilst omitting presence of larger vessels (determined by filter width). For skeletal density and vessel leakage measurements images were skeletonized using morphological filters (pixels representing branch points were excluded to divide vasculature into distinct vessel segments). Lengths of skeletal segments larger than 5 pixels (delineating vessels) were summed and divided by total graft area for skeletal density. Conversely, skeletal segments smaller than 5 pixels were summed for vessel leakage measurement.
The potential consequence of CEP modified human serum albumin (CEP-HSA) on angiogenesis was examined using the chick chorioallantoic membrane (CAM) assay. The angiogenic response to methylcellulose discs containing 0.5 μg (n=4), 1 μg (n=3), and 10 μg (n=4) of CEP-HSA or unmodified HSA (n=8) was analyzed. The protein preparations were analyzed for endotoxin and determined to be free of contamination. Representative results from these CAM assays are depicted in FIGS. 1a-1d. […] The average skeletal density of CAM vessels with 0.5 μg of CEP-HSA was ˜3.1.

[3] = system: ARPE-19 cells; assay: VEGF secretion assay (ELISA) in retinal pigment epithelial cells; type: cell-based, Human; conditions: 0.1-10 μM, ARPE19 cells, 18 hours
Method: Human retinal pigment epithelium (ARPE-19) cells were cultured in DMEM/F-12 medium with 10% fetal bovine serum, 100 U/ml penicillin, and 100 μg/ml streptomycin. The medium was changed every four days and all studies were performed on confluent cells. Endotoxin free media and serum were used. Confluent cultures in 24 well plates were starved for three days with serum free medium before incubating with CEP-Dipeptide or CEP-HSA (0.1-0.10 μM) and unmodified dipeptide or HSA (as controls). The CEP-dipeptide, CEP-HSA and controls were quantified by amino acid analysis (Crabb, J. W., et al. (1997) Amino Acid Analysis (John Wiley and Sons, Inc.)). Supernatant media was collected to measure VEGF secretion using an enzyme-linked immunosorbent assay (ELISA) according to the manufacturer's protocol (Research Diagnostics, Flanders, N.J.). […]
Another type of oxidized protein modification, namely advanced glycation end products (AGEs), stimulate angiogenesis in vivo (Okamoto, T., et al. (2002) Microvasc Res 63, 186-95) and induce VEGF secretion in vitro (Hirata, C., et al. (1997) Biochem Biophys Res Commun 236, 712-5; Hoffmann, S., et al. (2000) Invest Opthalmol Vis Sci 41, 2389-93). To explore whether CEP adducts influence VEGF secretion in vitro, human retinal pigment epithelial (RPE) cells were treated with CEP-dipeptide (0.1-10 μM) and VEGF protein quantified in the growth media by ELISA.

| Substance | increase in peak vessel extension compared with unmodified parent molecule ([1]; day 7, CEP-dipeptide 37 ng (FIG. 2g)) | growth of limbal blood vessels towards the pellet [1] | angiogenic response in CAM ([2]; CEP-HSA 161 ng (2.4 pmol)) | angiogenic response in CAM ([2]; CEP-HSA 0.5 μg (FIG. 1b), India ink perfusion) | average skeletal density of CAM vessels [2] | VEGF in the growth media (secretion) relative to unmodified control or media alone [3] | angiogenic response in CAM ([2]; HSA at doses up to 0.5 μg) |
| --- | --- | --- | --- | --- | --- | --- | --- |
| CEP-HSA: human serum albumin chemically modified with 2-(ω-carboxyethyl)pyrrole by Paal-Knorr condensation with DOHA | ~23 fold | stimulated the growth of limbal blood vessels towards the pellet | maximal response | induced sprouting of new blood vessels | ~3.1 | no increase in VEGF secretion |  |
| HSA: unmodified human serum albumin, negative control |  | did not induce this effect |  |  | ~2.5 |  | minimal or absent response |
